The text below walks through data of BindingDB's records for doi:10.1073/pnas.89.8.3630 (Synaptic Pharmaceutical, 1992).

Sequences of proteins named here, by UniProt entry; tags and fusion partners are left off.
UniProt Q8MI13, whole entry: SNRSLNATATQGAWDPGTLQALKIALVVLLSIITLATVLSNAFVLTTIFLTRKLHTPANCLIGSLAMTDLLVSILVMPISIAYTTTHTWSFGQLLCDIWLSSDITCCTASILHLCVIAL

As usually defined, the Ki is the equilibrium dissociation constant of an inhibitor or competing ligand from its target.

This test concerns the target 5-hydroxytryptamine 1D receptor (Bos taurus, UniProt Q8MI13).

In turn, `COC(=O)[C@@H]1[C@H]2C[C@H]3c4[nH]c5ccccc5c4CCN3C[C@@H]2CC[C@@H]1O` [yohimbic acid methyl ester] had a Ki of 79 nM.
